What is called Ki is the equilibrium dissociation constant of an inhibitor or competing ligand from its target.

The chains behind the UniProt entries cited, without tags or fusion partners.
UniProt P35372, whole entry: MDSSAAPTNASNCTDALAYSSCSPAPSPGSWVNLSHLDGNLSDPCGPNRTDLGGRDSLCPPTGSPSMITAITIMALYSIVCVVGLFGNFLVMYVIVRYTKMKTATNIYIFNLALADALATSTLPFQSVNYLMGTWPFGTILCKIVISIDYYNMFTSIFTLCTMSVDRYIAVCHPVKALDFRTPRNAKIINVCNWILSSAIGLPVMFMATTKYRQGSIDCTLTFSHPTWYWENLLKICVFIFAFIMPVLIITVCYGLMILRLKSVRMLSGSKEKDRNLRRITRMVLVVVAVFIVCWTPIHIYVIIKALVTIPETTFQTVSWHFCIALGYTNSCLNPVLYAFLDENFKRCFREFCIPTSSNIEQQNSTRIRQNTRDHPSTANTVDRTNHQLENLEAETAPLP
UniProt P41146, whole entry: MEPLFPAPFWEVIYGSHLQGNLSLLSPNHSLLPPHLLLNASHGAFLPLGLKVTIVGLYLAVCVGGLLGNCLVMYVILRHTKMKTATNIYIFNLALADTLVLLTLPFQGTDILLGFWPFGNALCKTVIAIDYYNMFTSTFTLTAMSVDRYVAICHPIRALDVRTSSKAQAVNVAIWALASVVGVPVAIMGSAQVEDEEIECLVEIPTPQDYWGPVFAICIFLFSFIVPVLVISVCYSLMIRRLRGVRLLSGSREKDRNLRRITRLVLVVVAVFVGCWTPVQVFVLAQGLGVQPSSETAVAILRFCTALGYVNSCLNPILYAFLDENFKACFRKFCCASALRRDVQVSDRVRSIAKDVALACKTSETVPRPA

One test has as its target human μ opiate receptor (Homo sapiens, UniProt P35372). Put plainly: μ opiate receptor binding assay with [3H]-naloxone (WGA-SPA beads). The note with it: for Ki: read-out: Ki (μ) mean [μm], mean; for % inhibition (μ) [1 μM]: test concentration 1 μM.
The target in a further test is ORL1 receptor (Homo sapiens, UniProt P41146). Put plainly: ORL1 receptor binding assay with 3H-nociceptin/orphanin FQ (WGA-SPA beads). The note with it: for Ki: read-out: Ki (ORL1) mean, mean; for % inhibition (ORL1) [1 μM]: test concentration 1 μM.

With `CNC1(c2cccs2)CCC2(CC1)CC(=O)N(CCC1CCC1)C2` (single isomer, unassigned), on human μ opiate receptor, the inhibitory constant (Ki) was 1.55 nM and the “% inhibition (μ) [1 μM]” value stood at 99%. Besides, on ORL1 receptor, the Ki worked out at 10.1 nM and the “% inhibition (ORL1) [1 μM]” value was determined as 92%.
As to `CN(C)C1(c2cccs2)CCC2(CC1)CNC(=O)C2` (single isomer, unassigned) [24], the values for the Ki at human μ opiate receptor and on ORL1 receptor were 130 nM and 740 nM, respectively. For the same molecule, at human μ opiate receptor (1 µM), the “% inhibition (μ) [1 μM]” value is listed as 70%. At ORL1 receptor (1 µM), the “% inhibition (ORL1) [1 μM]” value worked out at 49.5%.
Take `CN(C)C1(Cc2ccccc2)CCC2(CCN(CC3CCCC3)C2=O)CC1` (single isomer, unassigned) [122]: the inhibition constant (Ki) at human μ opiate receptor was determined as 670 nM. In addition, the “% inhibition (μ) [1 μM]” value on human μ opiate receptor (1 µM) is given as 45%. Also, the “% inhibition (ORL1) [1 μM]” value on ORL1 receptor (1 µM) amounted to 21%.
Turning to `CN(C)C1(Cc2ccccc2)CCC2(CCN(CC3CCCC3)C2=O)CC1` (single isomer, unassigned) [123], the Ki on human μ opiate receptor was 150 nM; on ORL1 receptor, 1880 nM. The “% inhibition (μ) [1 μM]” value at human μ opiate receptor (1 µM) is 71.5%. The “% inhibition (ORL1) [1 μM]” value at ORL1 receptor (1 µM) was 22%.
On the same counts, the results for `CN(C)C1(c2cccs2)CCC2(CC1)CC(=O)N(CC1CCCC1)C2` (single isomer, unassigned) [126] are 1.85 nM, 0.88 nM, 99% and 97%.
On the same counts, the results for `CN(C)C1(c2cccs2)CCC2(CC1)CC(=O)N(CC1CCCC1)C2` (single isomer, unassigned) [127] are 3970 nM, 360 nM, 25.5% and 30%.
The matching figures for `CN(C)C1(c2cccs2)CCC2(CC1)CC(=O)N(CCC1CCC1)C2` (single isomer, unassigned) [128]: 0.34 nM, 0.42 nM, 100.5% and 98%.
Consider `CN(C)C1(c2cccs2)CCC2(CC1)CC(=O)N(CCC1CCC1)C2` (single isomer, unassigned) [129], for which the Ki was 367 nM at human μ opiate receptor and 22 nM on ORL1 receptor. For the same molecule, the “% inhibition (μ) [1 μM]” value at human μ opiate receptor (1 µM) worked out at 51.5%. In addition, the “% inhibition (ORL1) [1 μM]” value at ORL1 receptor (1 µM) worked out at 47%.
The matching figures for `CN(C)C1(c2cccs2)CCC2(CC1)CC(=O)N(CCC1CC1)C2` (single isomer, unassigned) [130]: 0.64 nM, 0.75 nM, 99% and 90.5%.
The matching figures for `CN(C)C1(c2cccs2)CCC2(CC1)CC(=O)N(CCC1CC1)C2` (single isomer, unassigned) [131]: 1180 nM, 220 nM, 37% and 47%.
The matching figures for `CN(C)C1(c2cccs2)CCC2(CC1)CC(=O)N(CC1CCC1)C2` (single isomer, unassigned) [132]: 1.4 nM, 0.79 nM, 99% and 91.5%.
`CN(C)C1(c2cccs2)CCC2(CC1)CC(=O)N(CC1CCC1)C2` (single isomer, unassigned) [133]: the Ki on human μ opiate receptor was 1400 nM; on ORL1 receptor, 175 nM. In addition, the “% inhibition (μ) [1 μM]” value on human μ opiate receptor (1 µM) is recorded as 32%. Also, on ORL1 receptor (1 µM), the “% inhibition (ORL1) [1 μM]” value is reported as 47.5%.
On the same counts, the results for `CN(C)C1(c2cccs2)CCC2(CC1)CC(=O)N(CCC1CCCO1)C2` (single isomer, unassigned) [136] are 1.02 nM, 1.35 nM, 100% and 87.5%.
The matching figures for `CN(C)C1(c2cccs2)CCC2(CC1)CC(=O)N(CC1CCOCC1)C2` (single isomer, unassigned) [139]: 3880 nM, 680 nM, 23% and 28.5%.
Regarding `CN(C)C1(c2cccs2)CCC2(CC1)CC(=O)N(CCC1CCOC1)C2` (single isomer, unassigned) [140], the Ki on human μ opiate receptor is 1250 nM; at ORL1 receptor it was 235 nM. The “% inhibition (μ) [1 μM]” value on human μ opiate receptor (1 µM) amounted to 44%. Further, the “% inhibition (ORL1) [1 μM]” value on ORL1 receptor (1 µM) stood at 34%.
The matching figures for `CN(C)C1(c2cccs2)CCC2(CC1)CC(=O)N(CCC1COC1)C2` (single isomer, unassigned) [143]: 1380 nM, 350 nM, 24% and 33%.
The matching figures for `CN(C)C1(c2cccs2)CCC2(CC1)CC(=O)N(CCC1(C#N)CC1)C2` (single isomer, unassigned) [145]: 161 nM, 67.5 nM, 77% and 53%.
The matching figures for `CN(C)C1(c2cccs2)CCC2(CC1)CC(=O)N(CC1COC1)C2` (single isomer, unassigned) [149]: 3410 nM, 785 nM, 54.5% and 22.5%.
With `CN(C)C1(c2cccs2)CCC2(CC1)CC(=O)N(CCC1(C#N)CCC1)C2` (single isomer, unassigned) [151], the Ki came out at 29 nM on human μ opiate receptor and 22 nM at ORL1 receptor. In addition, the “% inhibition (μ) [1 μM]” value at human μ opiate receptor (1 µM) is 95%. Moreover, the “% inhibition (ORL1) [1 μM]” value at ORL1 receptor (1 µM) was found to be 63%.

For the origin of these results see patent US10202345B2, “Substituted azaspiro(4.5)decane derivatives” (priority 2014, dated 2019).
